Measurements reported in patent publication US4816465A, “Decahydroquinolines and analgesic use thereof” (dated 1989).
pIC50: −log10 of the molar value. Like-named read-outs stand apart in the source and are kept apart here.

Sequences of proteins named here, by UniProt entry; tags and fusion partners are left off. A change or cut given only in a name is not applied to a line headed by its entry.
UniProt P41144: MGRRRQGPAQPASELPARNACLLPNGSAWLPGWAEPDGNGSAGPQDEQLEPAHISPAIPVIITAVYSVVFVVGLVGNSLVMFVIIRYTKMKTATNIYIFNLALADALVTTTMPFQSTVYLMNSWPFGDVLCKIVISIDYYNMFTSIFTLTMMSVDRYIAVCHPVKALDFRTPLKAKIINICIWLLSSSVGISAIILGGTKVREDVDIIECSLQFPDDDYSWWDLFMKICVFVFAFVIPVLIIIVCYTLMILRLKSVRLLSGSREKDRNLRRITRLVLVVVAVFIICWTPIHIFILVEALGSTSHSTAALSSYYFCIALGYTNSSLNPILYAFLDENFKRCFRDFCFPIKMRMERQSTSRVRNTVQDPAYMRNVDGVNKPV

What was measured:
[1] = biological target: Opiate Receptor K (Cavia porcellus, UniProt P41144); assay: Bond with the Opiate Receptor K in vitro (displacement of 3H ethylketocyclazocine, guinea-pig cerebella membranes); conditions: read-out: IC50 (50% inhibiting concentration), 9 3H ethylketo-cyclazocine 1 nM, Tris pH 7.7, 25° C., 40 minutes
[2] = test system: Male rats; conditions: intravenous
[3] = test system: mice; assay: Stretchings Test (acetic acid, analgesic activity); conditions: oral, half-an-hour before acetic acid injection; 15 minutes observation
[4] = test system: Female mice; assay: Hot Plate Test (analgesic activity); conditions: sub-cutaneous; 30 minutes after treatment; plate 56° C.
[5] = test system: electroencephalogram of anaesthetized rats; assay: Test of asphyxic anoxia (spectral analysis of electroencephalogram)
[6] = 1 mg/kg i.v., 2 minutes after anoxia
[7] = 1 mg/kg i.v., 10 minutes after anoxia
[8] = 1 mg/kg i.v., 30 minutes after anoxia
[9] = 5 mg/kg i.v., 2 minutes after anoxia
[10] = 5 mg/kg i.v., 10 minutes after anoxia
[11] = 5 mg/kg i.v., 30 minutes after anoxia

Work on `CC(C(=O)N1CCCC2CCCC(N3CCCC3)C21)c1ccc(Cl)c(Cl)c1` (stereo not shown) yielded a pIC50 [1] of 8.27.

With `COc1cc(C(=O)N2CCC[C@@H]3CCC[C@@H](N4CCCC4)[C@@H]32)cc(OC)c1OC` (relative stereo) the “Percentage of extension of time of appearance of disturbances of cardiac rhythm” value (from here on “Percentage of extension … of cardiac rhythm”) ([2]; 0.25 mg/kg) was “+45%”, the “Percentage of extension … of cardiac rhythm” value ([2]; 0.5 mg/kg) was “+85%” and the “Percentage of extension … of cardiac rhythm” value ([2]; 1 mg/kg) was “+141%”.

`O=C(Cc1ccc(Br)cc1)N1CCC[C@@H]2CCC[C@@H](N3CCCC3)[C@@H]21` (relative stereo) gave a pIC50 [1] of 8.02.

For `O=C(Cc1ccc(C(F)(F)F)cc1)N1CCC[C@@H]2CCC[C@@H](N3CCCC3)[C@@H]21` (relative stereo), the “DA50 (dose giving reduction of 50% in the number of stretching)” value [3] was 21 mg/kg and the pIC50 [1] was 8.30.

`O=C(Cc1ccc(Cl)c(Cl)c1)N1CCC[C@@H]2CCC[C@@H](N3CCCC3)[C@@H]21` (relative stereo) was tested, and the “Percentage of extension … of cardiac rhythm” value ([2]; 1 mg/kg) was “+17.5%”, the “Percentage of extension … of cardiac rhythm” value ([2]; 2.5 mg/kg) was “+31.5%” and the “Percentage of extension … of cardiac rhythm” value ([2]; 5 mg/kg) was “+56.6%”. For the same molecule, the “Percentage of extension … of cardiac rhythm” value ([2]; 10 mg/kg) was “+113.5%”, the “DA50 (dose giving reduction of 50% in the number of stretching)” value [3] was 18 mg/kg and the “AD100 (dose which increased the reaction time by 100%)” value [4] was 20 mg/kg. For the same molecule, the pIC50 [1] was 8.57, the “EEG TOTAL POWER (percentage of check before anoxia)” value [5, 6] was 70 ± 22% and the “EEG energy, ALPHA band (percentage of check before anoxia)” value [5, 6] was 19 ± 6%. The “EEG energy, BETA band (percentage of check before anoxia)” value [5, 6] was 21 ± 7%, the “EEG energy, DELTA band (percentage of check before anoxia)” value [5, 6] was 214 ± 60% and the “EEG energy, THETA band (percentage of check before anoxia)” value [5, 6] was 6 ± 2%. For the same molecule, the “EEG TOTAL POWER (percentage of check before anoxia)” value [5, 7] was 173 ± 41%, the “EEG energy, ALPHA band (percentage of check before anoxia)” value [5, 7] was 73 ± 5% and the “EEG energy, BETA band (percentage of check before anoxia)” value [5, 7] was 96 ± 11%. The “EEG energy, DELTA band (percentage of check before anoxia)” value [5, 7] was 404 ± 123%, the “EEG energy, THETA band (percentage of check before anoxia)” value [5, 7] was 57 ± 8% and the “EEG TOTAL POWER (percentage of check before anoxia)” value [5, 8] was 120 ± 9%. The “EEG energy, ALPHA band (percentage of check before anoxia)” value [5, 8] was 79 ± 6%, the “EEG energy, BETA band (percentage of check before anoxia)” value [5, 8] was 87 ± 5% and the “EEG energy, DELTA band (percentage of check before anoxia)” value [5, 8] was 225 ± 32%. The “EEG energy, THETA band (percentage of check before anoxia)” value [5, 8] was 72 ± 6%, the “EEG TOTAL POWER (percentage of check before anoxia)” value ([5]; 1 mg/kg i.v., before anoxia) was 100 ± 0% and the “EEG energy, ALPHA band (percentage of check before anoxia)” value ([5]; 1 mg/kg i.v., before anoxia) was 100 ± 0%. For the same molecule, the “EEG energy, BETA band (percentage of check before anoxia)” value ([5]; 1 mg/kg i.v., before anoxia) was 100 ± 0%, the “EEG energy, DELTA band (percentage of check before anoxia)” value ([5]; 1 mg/kg i.v., before anoxia) was 100 ± 0% and the “EEG energy, THETA band (percentage of check before anoxia)” value ([5]; 1 mg/kg i.v., before anoxia) was 100 ± 0%. The “EEG TOTAL POWER (percentage of check before anoxia)” value ([5]; 1 mg/kg i.v., end of anoxia) was 0 ± 0%, the “EEG energy, ALPHA band (percentage of check before anoxia)” value ([5]; 1 mg/kg i.v., end of anoxia) was 0 ± 0% and the “EEG energy, BETA band (percentage of check before anoxia)” value ([5]; 1 mg/kg i.v., end of anoxia) was 0 ± 0%. The “EEG energy, DELTA band (percentage of check before anoxia)” value ([5]; 1 mg/kg i.v., end of anoxia) was 1 ± 0%, the “EEG energy, THETA band (percentage of check before anoxia)” value ([5]; 1 mg/kg i.v., end of anoxia) was 0 ± 0% and the “value of the delta bands (in words)” value ([5]; 1 mg/kg intravenous, 30 minutes from end of anoxia) was “still about twice the base value”. The “recuperation of the electro-cortical activity (in words)” value ([5]; 1 mg/kg, intravenous) was “an anticipation of the recuperation of the electro-cortical activity was observed, while the effect on the normalization of the trace was less evident”, the “EEG TOTAL POWER (percentage of check before anoxia)” value [5, 9] was 68 ± 14% and the “EEG energy, ALPHA band (percentage of check before anoxia)” value [5, 9] was 25 ± 5%. The “EEG energy, BETA band (percentage of check before anoxia)” value [5, 9] was 33 ± 5%, the “EEG energy, DELTA band (percentage of check before anoxia)” value [5, 9] was 243 ± 68% and the “EEG energy, THETA band (percentage of check before anoxia)” value [5, 9] was 6 ± 2%. For the same molecule, the “EEG TOTAL POWER (percentage of check before anoxia)” value [5, 10] was 79 ± 6%, the “EEG energy, ALPHA band (percentage of check before anoxia)” value [5, 10] was 55 ± 4% and the “EEG energy, BETA band (percentage of check before anoxia)” value [5, 10] was 103 ± 14%. The “EEG energy, DELTA band (percentage of check before anoxia)” value [5, 10] was 127 ± 25%, the “EEG energy, THETA band (percentage of check before anoxia)” value [5, 10] was 63 ± 11% and the “EEG TOTAL POWER (percentage of check before anoxia)” value [5, 11] was 100 ± 8%. For the same molecule, the “EEG energy, ALPHA band (percentage of check before anoxia)” value [5, 11] was 80 ± 8%, the “EEG energy, BETA band (percentage of check before anoxia)” value [5, 11] was 102 ± 9% and the “EEG energy, DELTA band (percentage of check before anoxia)” value [5, 11] was 123 ± 14%. The “EEG energy, THETA band (percentage of check before anoxia)” value [5, 11] was 94 ± 14%, the “EEG TOTAL POWER (percentage of check before anoxia)” value ([5]; 5 mg/kg i.v., before anoxia) was 100 ± 0% and the “EEG energy, ALPHA band (percentage of check before anoxia)” value ([5]; 5 mg/kg i.v., before anoxia) was 100 ± 0%. The “EEG energy, BETA band (percentage of check before anoxia)” value ([5]; 5 mg/kg i.v., before anoxia) was 100 ± 0%, the “EEG energy, DELTA band (percentage of check before anoxia)” value ([5]; 5 mg/kg i.v., before anoxia) was 100 ± 0% and the “EEG energy, THETA band (percentage of check before anoxia)” value ([5]; 5 mg/kg i.v., before anoxia) was 100 ± 0%. The “EEG TOTAL POWER (percentage of check before anoxia)” value ([5]; 5 mg/kg i.v., end of anoxia) was 0 ± 0%, the “EEG energy, ALPHA band (percentage of check before anoxia)” value ([5]; 5 mg/kg i.v., end of anoxia) was 0 ± 0% and the “EEG energy, BETA band (percentage of check before anoxia)” value ([5]; 5 mg/kg i.v., end of anoxia) was 0 ± 0%. The “EEG energy, DELTA band (percentage of check before anoxia)” value ([5]; 5 mg/kg i.v., end of anoxia) was 1 ± 0%, the “EEG energy, THETA band (percentage of check before anoxia)” value ([5]; 5 mg/kg i.v., end of anoxia) was 0 ± 0% and the “values of the different bands of frequency (in words)” value ([5]; 5 mg/kg intravenous, 30 minutes after anoxia) was “almost equal to the base values”. For the same molecule, the “recuperation of the electro-cortical activity (in words)” value ([5]; 5 mg/kg intravenous, all frequency bands) was “remarkable anticipation of the recuperation of the electro-cortical activity in all the frequency bands”.

In the case of `O=C(Cc1ccc(Cl)cc1Cl)N1CCC[C@@H]2CCC[C@@H](N3CCCC3)[C@@H]21` (relative stereo), the pIC50 [1] was 7.92.

With `O=C(Cc1ccc([N+](=O)[O-])cc1)N1CCC[C@@H]2CCC[C@@H](N3CCCC3)[C@@H]21` (relative stereo) the “DA50 (dose giving reduction of 50% in the number of stretching)” value [3] was 20 mg/kg and the pIC50 [1] was 7.77.

Work on `O=C(Cc1cccc2ccccc12)N1CCC[C@@H]2CCC[C@@H](N3CCCC3)[C@@H]21` (relative stereo) yielded a pIC50 [1] of 8.22.

`O=C(Cc1cccc2sccc12)N1CCC[C@@H]2CCC[C@@H](N3CCCC3)[C@@H]21` (relative stereo) gave a pIC50 [1] of 8.39.
